A word on the Kd: it is the concentration at which binding is half-saturated. A low value points to higher affinity.

The chains behind the UniProt entries cited, without tags or fusion partners.
UniProt P08684, whole entry: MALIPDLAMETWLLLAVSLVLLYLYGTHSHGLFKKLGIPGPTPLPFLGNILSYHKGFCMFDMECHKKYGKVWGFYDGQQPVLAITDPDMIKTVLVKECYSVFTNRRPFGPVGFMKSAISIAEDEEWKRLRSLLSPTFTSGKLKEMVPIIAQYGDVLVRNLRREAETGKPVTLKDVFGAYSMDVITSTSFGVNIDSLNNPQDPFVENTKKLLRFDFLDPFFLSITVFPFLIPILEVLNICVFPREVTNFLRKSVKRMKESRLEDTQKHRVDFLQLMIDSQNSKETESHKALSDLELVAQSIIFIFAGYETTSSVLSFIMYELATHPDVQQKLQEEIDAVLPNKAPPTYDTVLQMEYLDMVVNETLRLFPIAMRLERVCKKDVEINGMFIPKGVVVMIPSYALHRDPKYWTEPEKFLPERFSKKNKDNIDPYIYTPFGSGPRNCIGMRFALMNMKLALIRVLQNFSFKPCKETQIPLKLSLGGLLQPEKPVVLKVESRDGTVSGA

The target of this data set is CYP3A4 (Homo sapiens, UniProt P08684). To be noted: pH 7.4.

Take bromocryptine: the “High-Spin Shift” value was 90% and binding was put at a Kd of 430 ± 80 nM.

The values above are taken from publication PMC6747129 (International Journal of Molecular Sciences, 2019).
